Test results as given in ChEMBL document CHEMBL1125721, “Highly selective kappa opioid analgesics. 4. Synthesis of some conformationally restricted naphthalene derivatives with high receptor affinity and selectivity” (1991).

Protein sequences, listed by entry. Tags and fused reporters are not part of them. Lines headed by an entry give the natural chain unless they say otherwise; changes in a name come on top.
UniProt P97266, whole entry, looked up: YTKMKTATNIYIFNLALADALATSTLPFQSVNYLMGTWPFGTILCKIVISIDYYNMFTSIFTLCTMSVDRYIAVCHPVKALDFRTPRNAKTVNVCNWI
UniProt P41144: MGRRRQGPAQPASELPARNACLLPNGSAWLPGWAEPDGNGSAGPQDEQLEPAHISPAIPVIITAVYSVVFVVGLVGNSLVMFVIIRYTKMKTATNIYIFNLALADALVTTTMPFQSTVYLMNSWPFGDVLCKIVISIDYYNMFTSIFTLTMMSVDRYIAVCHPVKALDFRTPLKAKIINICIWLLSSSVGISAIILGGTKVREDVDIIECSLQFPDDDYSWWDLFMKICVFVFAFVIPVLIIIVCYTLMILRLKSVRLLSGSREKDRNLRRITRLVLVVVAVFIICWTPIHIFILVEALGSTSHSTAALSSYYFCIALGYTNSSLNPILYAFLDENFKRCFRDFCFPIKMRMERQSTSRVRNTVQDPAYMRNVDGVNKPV

Experiments:
[1] = system: Rattus norvegicus; assay: Dose required to produce 50% of the maximum possible analgesic effect evaluated through rat paw pressure assay with the compound being administered through intravenous route.
[2] = target: T1, Mu-type opioid receptor (Cavia porcellus, UniProt P97266); assay: Compound was evaluated for the Opioid receptor mu affinity determined with [3H][D-Ala2-MePhe4-Gly-ol5]-enkephalin (DAGOL) in the presence of excess unlabeled DAGOL to suppress mu binding.
[3] = target: T2, Kappa-type opioid receptor (Cavia porcellus, UniProt P41144); assay: Compound was evaluated for Opioid receptor kappa 1 affinity, determined with [3H]etorphine in the presence of excess unlabeled [D-Ala2-MePhe4-Glyol5]-enkephalin to suppress kappa binding.
[4] = target: T1, Mu-type opioid receptor; assay: Compound was evaluated for the Opioid receptor mu 1 affinity determined with [3H][D-Ala2-MePhe4-Gly-ol5]-enkephalin (DAGOL) in the presence of excess unlabeled DAGOL to suppress mu binding.
[5] = target: T2, Kappa-type opioid receptor; assay: Opioid receptor kappa affinity, determined with [3H]etorphine in the presence of excess unlabeled [D-Ala2-MePhe4-Glyol5]-enkephalin
[6] = target: T1, Mu-type opioid receptor; assay: Compound was evaluated for the opioid receptor mu affinity determined with [3H][D-Ala2-MePhe4-Gly-ol5]-enkephalin (DAGOL) in the presence of excess unlabeled DAGOL to suppress mu binding.

## CN(C(=O)Cc1cccc2occc12)[C@H]1CCC2(CCCO2)C[C@@H]1N1CCCC1.Cl (stereo not given in full)
[1]
  MPE50: 0.027 mg/kg

## CN(C(=O)Cc1cccc2sccc12)[C@H]1CCCC[C@@H]1N1CCCC1
[2]
  Ki: 410 nM

## CN(C(=O)Cc1cccc2ccccc12)[C@H]1CCC2(CCCO2)C[C@@H]1N1CCCC1 (stereo not given in full)
[3]
  Ki: 3.35 nM
[4]
  Ki: 864 nM

## CN(C(=O)Cc1cccc2sccc12)[C@H]1CCCC[C@@H]1N1CCCC1.Cl
[1]
  MPE50: 1.4 mg/kg

## CC1c2cccc3cccc(c23)C1C(=O)N(C)[C@H]1CCC2(CCCO2)C[C@@H]1N1CCNC1 (stereo not given in full)
[5]
  Ki: 1.2 nM
[6]
  Ki: 273 nM

## CN(C(=O)Cc1cccc2occc12)[C@H]1CCC2(CCCO2)C[C@@H]1N1CCCC1 (stereo not given in full)
[3]
  Ki: 0.83 nM
[4]
  Ki: 1260 nM

## CC1c2cccc3cccc(c23)C1C(=O)N(C)[C@H]1CCC2(CCCO2)C[C@@H]1N1CCNC1.Cl (stereo not given in full)
[1]
  MPE50: 0.43 mg/kg
